This assay relates to SK-BR-3 cells (HER2++). Briefly: Cell killing / cell viability in SK-BR-3 cells. Type of assay: cell-based, human. To be noted: for cell killing: SK-BR-3 (HER2++), treated alone. The text has this:
Trastuzumab-(Cys-L-SO1861)^3,8(Lys-L-dianthin)^1,7 or trastuzumab-(Cys-L-SO1861)^3,8(Lys-S-dianthin)^1,7, were produced and tested for enhanced cell killing in SK-BR-3 (HER2^++) and MDA-MB-468 (HER2^−) cells as illustrated in FIG. 9.

Regarding “trastuzumab-(L-SO1861)^3,8: trastuzumab conjugated to SO1861-EMCH via cysteines”, the cell killing entry was “not observed”.
With Trastuzumab: HER2 targeting antibody, the cell killing entry was “not observed”. In addition, for the setting “SK-BR-3, relatively high dose”, the cell growth inhibition result is given as “some effect on cell growth inhibition”.
